Consider four compounds from US4912133A, “BU-3862T antitumor antibiotic” (priority 1988, dated 1990).

One assay deals with P388 leukemia. The note with it: Q4D × 3.
The mark [1] stands for this setting: Table 6, 0.25 mg/kg/day ip, Q4D × 3.
Where [2] appears, read: Table 6, 0.5 mg/kg/day ip, Q4D × 3.
The mark [3] stands for this setting: Table 6, 1.0 mg/kg/day ip, Q4D × 3.
Setting [4] is: Table 6, 2.0 mg/kg/day ip, Q4D × 3.
[5] abbreviates: Table 6, 4.0 mg/kg/day ip, Q4D × 3.
The mark [6] stands for this setting: Table 6, 8.0 mg/kg/day ip, Q4D × 3.
[7] abbreviates: Table 7, 1.0 mg/kg/day ip, Q4D × 3.
The mark [8] stands for this setting: Table 7, 2.0 mg/kg/day ip, Q4D × 3.
Where [9] appears, read: Table 7, 4.0 mg/kg/day ip, Q4D × 3.
The mark [10] stands for this setting: Table 7, 8.0 mg/kg/day ip, Q4D × 3.

Like-named read-outs stand apart in the source and are kept apart here. Some results are limits rather than exact numbers.

As for `C=C(C)CC(NC(=O)[C@H](CO)NC(=O)CCCCC(C)C)C(=O)C1(CO)CO1` (stereo partly shown) [BU-3862T], the “MST (median survival time)” value in the assay on L1210 leukemia (0.25 mg/kg/day ip, Q3D × 3) was 9.5 days; in the assay with L1210 leukemia (0.5 mg/kg/day ip, Q3D × 3), 9.5 days; in the assay on L1210 leukemia (1.0 mg/kg/day ip, Q3D × 3), 10.0 days; in the assay with L1210 leukemia (4.0 mg/kg/day ip, Q3D × 3), “Tox”; in the assay with B16 melanoma (Table 6, 0.13 mg/kg/day ip, QD × 9), 18.5 days; in the assay with B16 melanoma (setting [1]), 14.0 days. For the same compound, the “MST (median survival time)” value in the assay on B16 melanoma (Table 6, 0.25 mg/kg/day ip, QD × 9) was 20.0 days; with B16 melanoma (setting [2]), 15.5 days; with B16 melanoma (Table 6, 0.5 mg/kg/day ip, QD × 9), 20.0 days; in the assay with B16 melanoma (Table 6, 0.63 mg/kg/day (so in the source) ip, QD × 9), 18.0 days; in the assay on B16 melanoma (setting [3]), 17.0 days; in the assay with B16 melanoma (Table 6, 1.0 mg/kg/day ip, QD × 9), 14.5 days. For the same compound, the “MST (median survival time)” value in the assay on B16 melanoma (setting [4]) was 18.0 days; with B16 melanoma (Table 6, 2.0 mg/kg/day ip, QD × 9) it was “Tox”; in the assay on B16 melanoma (setting [5]), 19.0 days; in the assay with B16 melanoma (setting [6]), 20.0 days; in the assay with P388 leukemia (0.5 mg/kg/day ip) it was 13.0 days; in the assay on P388 leukemia (1.0 mg/kg/day ip), 11.5 days. Also, the “MST (median survival time)” value with P388 leukemia (4.0 mg/kg/day ip) came out at 11.0 days. Besides, the T/C (usually the result in the treated group divided by that in the control group, in per cent) is 117% in the assay with B16 melanoma (setting [1]); 129% in the assay with B16 melanoma (setting [2]); 142% with B16 melanoma (setting [3]); 150% in the assay on B16 melanoma (setting [4]); 158% in the assay on B16 melanoma (setting [5]); 167% in the assay on B16 melanoma (setting [6]). Further, the T/C is recorded as 124% with P388 leukemia (0.5 mg/kg/day ip), 110% with P388 leukemia (1.0 mg/kg/day ip) and 105% in the assay with P388 leukemia (4.0 mg/kg/day ip).
`C=C(C)CC(NC(=O)[C@H](COC(C)=O)NC(=O)CCCCC(C)C)C(=O)C1(COC(C)=O)CO1` (stereo partly shown) [Diacetyl-BU-3862T]: the “MST (median survival time)” value with B16 melanoma (setting [7]) is 20.0 days; in the assay with B16 melanoma (setting [8]), 20.5 days; with B16 melanoma (setting [9]) it was 23.0 days; in the assay with B16 melanoma (setting [10]), 24.0 days. Moreover, the T/C in the assay on B16 melanoma (setting [7]) is 118%; in the assay on B16 melanoma (setting [8]) it was 121%; in the assay on B16 melanoma (setting [9]), 135%; in the assay on B16 melanoma (setting [10]), 141%.
`CC(C)CCCCC(=O)N[C@@H](CO)C(=O)NC(CC(C)C)C(=O)C1(CO)CO1` (stereo partly shown) [Dihydro-BU-3862T]: the “MST (median survival time)” value came to 19.5 days with B16 melanoma (setting [7]), 21.0 days in the assay on B16 melanoma (setting [8]), 20.0 days with B16 melanoma (setting [9]) and 22.5 days in the assay on B16 melanoma (setting [10]). Further, the T/C in the assay on B16 melanoma (setting [7]) came to 115%; in the assay with B16 melanoma (setting [8]), 124%; with B16 melanoma (setting [9]), 118%; in the assay with B16 melanoma (setting [10]) it was 132%.
Regarding `CO[C@@]12[C@H](COC(N)=O)C3=C(C(=O)C(C)=C(N)C3=O)N1C[C@@H]1N[C@@H]12` [Mitomycin C, reference compound], the “MST (median survival time)” value was determined as 10.0 days in the assay on L1210 leukemia (0.25 mg/kg/day ip, QD × 3); 15.0 days with B16 melanoma (setting [2]); 18.5 days in the assay with B16 melanoma (setting [3]); 29.0 days in the assay on B16 melanoma (setting [4]); 20.0 days in the assay on B16 melanoma (Table 7, 0.25 mg/kg/day ip, Q4D × 3); 23.0 days in the assay with B16 melanoma (setting [7]). The “MST (median survival time)” value was at least 33.0 days in the assay with B16 melanoma (setting [8]) and 15.0 days in the assay with P388 leukemia (1.0 mg/kg/day ip). For the same compound, the results for the T/C with B16 melanoma (setting [3]), in the assay on B16 melanoma (setting [4]) and in the assay on B16 melanoma (setting [8]) were 154%, 242% and at least 194%, respectively.
